Biological target: SWI/SNF-related matrix-associated actin-dependent regulator of chromatin subfamily A member 4 (Homo sapiens, UniProt P51532)
Assay: biochemical

Chains of the proteins cited; added tags and fusions are not shown.
UniProt P51532, whole entry: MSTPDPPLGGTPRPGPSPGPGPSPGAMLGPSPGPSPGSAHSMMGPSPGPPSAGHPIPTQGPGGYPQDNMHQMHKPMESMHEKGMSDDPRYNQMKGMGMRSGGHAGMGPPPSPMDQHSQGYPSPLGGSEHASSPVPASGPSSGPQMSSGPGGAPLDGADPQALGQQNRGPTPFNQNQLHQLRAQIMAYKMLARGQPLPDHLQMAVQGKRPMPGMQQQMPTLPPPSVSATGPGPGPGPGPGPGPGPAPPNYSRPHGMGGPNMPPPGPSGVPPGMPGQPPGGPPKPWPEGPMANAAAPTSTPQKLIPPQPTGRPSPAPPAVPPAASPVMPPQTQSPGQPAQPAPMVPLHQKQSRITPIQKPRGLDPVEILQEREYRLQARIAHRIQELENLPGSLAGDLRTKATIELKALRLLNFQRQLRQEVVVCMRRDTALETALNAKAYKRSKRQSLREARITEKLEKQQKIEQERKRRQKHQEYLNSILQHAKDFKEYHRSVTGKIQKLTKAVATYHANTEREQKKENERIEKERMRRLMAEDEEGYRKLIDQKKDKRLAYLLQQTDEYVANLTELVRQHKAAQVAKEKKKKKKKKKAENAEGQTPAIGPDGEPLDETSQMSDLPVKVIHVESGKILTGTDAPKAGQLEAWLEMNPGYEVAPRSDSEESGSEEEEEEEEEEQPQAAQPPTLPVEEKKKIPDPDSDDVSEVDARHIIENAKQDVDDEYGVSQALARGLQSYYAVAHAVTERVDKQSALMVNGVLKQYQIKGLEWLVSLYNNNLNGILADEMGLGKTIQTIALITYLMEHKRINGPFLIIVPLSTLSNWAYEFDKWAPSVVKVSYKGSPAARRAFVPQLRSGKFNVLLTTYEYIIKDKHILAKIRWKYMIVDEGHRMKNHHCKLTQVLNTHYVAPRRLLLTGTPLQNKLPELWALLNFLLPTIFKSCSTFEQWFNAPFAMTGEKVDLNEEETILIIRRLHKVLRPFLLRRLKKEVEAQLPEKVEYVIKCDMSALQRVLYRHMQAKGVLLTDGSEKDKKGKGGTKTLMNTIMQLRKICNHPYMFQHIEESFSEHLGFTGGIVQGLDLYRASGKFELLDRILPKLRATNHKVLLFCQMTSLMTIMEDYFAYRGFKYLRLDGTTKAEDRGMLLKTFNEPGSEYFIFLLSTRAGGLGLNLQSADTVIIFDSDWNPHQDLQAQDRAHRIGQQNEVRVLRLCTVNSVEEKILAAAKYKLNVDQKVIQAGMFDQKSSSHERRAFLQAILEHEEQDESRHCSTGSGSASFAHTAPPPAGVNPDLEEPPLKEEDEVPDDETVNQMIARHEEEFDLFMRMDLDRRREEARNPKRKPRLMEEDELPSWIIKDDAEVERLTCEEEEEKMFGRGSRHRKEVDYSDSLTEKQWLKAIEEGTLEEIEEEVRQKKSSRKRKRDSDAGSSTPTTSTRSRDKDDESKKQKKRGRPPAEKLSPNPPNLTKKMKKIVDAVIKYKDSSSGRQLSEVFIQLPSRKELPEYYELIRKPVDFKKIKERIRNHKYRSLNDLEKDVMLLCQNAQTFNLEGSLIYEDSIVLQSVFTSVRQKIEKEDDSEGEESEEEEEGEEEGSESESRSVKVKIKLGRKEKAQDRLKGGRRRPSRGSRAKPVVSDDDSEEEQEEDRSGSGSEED

Kd: 2030 nM
Structure (SMILES): CCC(/C=C1\CCn2c1nc(=O)c1c(Cl)cccc12)CC

From ChEMBL document CHEMBL3822370, “Identification and Development of 2,3-Dihydropyrrolo[1,2-a]quinazolin-5(1H)-one Inhibitors Targeting Bromodomains within the Switch/Sucrose Nonfermenting Complex” (J Med Chem, 2016)
